Measured values taken from publication PMC7114863 (Journal of Hepatology, 2009).

How the values were obtained:
[1] = system: J6/JFH chimeric HCV reporter virus (J6/JFH-Rluc2a-FLAG); assay: Antiviral assay with HCVcc virus in Huh-Lunet cells; type: cell-based, HCV genotype 2a; conditions: luciferase assay, three days
[2] = system: HCV replicon in Huh 9-13 cells; assay: HCV replicon clearance-rebound assay; type: cell-based; conditions: 100 IU/ml
[3] = system: HuH6 replicons; assay: Anti-HCV replicon assay in HuH6 cells; conditions: RT-qPCR; mean ± SD

Question: Which “Anti-HCV activity EC50, J6/JFH” value [1] does the source give for “IFNα 2b: recombinant IFNα 2b (intron® A) purchased from Schering Plough” here?
Answer: 1.9 ± 0.07 IU/ml

Question: And the “passages until clearance of replicon, drug alone” value [2]?
Answer: 3 passages

Question: What about the “Anti-HCV activity EC50, HuH6” value [3] of the same substance?
Answer: 22 ± 5.4 IU/ml
